## Yeast mating assay B: variants of the scFv Ab-14

The measurements come from Li et al. 2023 (doi:10.1038/s41467-023-39022-2) through the FLAb antibody collection.

Target: peptide PDVDLGDISGINAS, taken from heptad repeat 2 (HR2) of SARS-CoV-2 spike.

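The starting antibody came from a phage panning campaign against this peptide. This is the validation round: designs drawn from the data on random variants, tested in the same kind of assay. Their group label is 14H_En_Gen (En: ensemble of fine-tuned language models; Gen: genetic algorithm). In AlphaSeq, yeast of one mating type display the scFv and yeast of the other type display the target. Binding brings cells together so that they mate, and sequencing counts the barcode pairs among the diploids. Scores were corrected for input abundance and mapped to Kd with protein pairs of known affinity run in the same pool. Each pool was mated in six replicate cultures.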

Each scFv is VH, three GGGGS repeats, VL, as in the parent Ab-14, and differs from it in the CDRs of the heavy chain only.
VH: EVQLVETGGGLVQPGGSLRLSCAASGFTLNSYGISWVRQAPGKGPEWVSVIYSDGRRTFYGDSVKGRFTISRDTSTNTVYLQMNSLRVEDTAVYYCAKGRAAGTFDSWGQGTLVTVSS
VL: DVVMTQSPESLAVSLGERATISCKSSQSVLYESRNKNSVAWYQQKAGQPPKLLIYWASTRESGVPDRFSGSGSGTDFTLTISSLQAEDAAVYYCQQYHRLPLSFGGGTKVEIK

Each variant is given by its three heavy chain CDRs, as the data file delimits them; those of the parent are GFTLNSYGIS, VIYSDGRRTFYGDSVK, GRAAGTFDS. The read-out is the apparent dissociation constant on a log10 scale (nM): the lower, the stronger. Replicates are averaged; those with no signal do not enter the mean. An entry "nd" has no value in the source: the pair was not observed among the diploids in that replicate. This suggests poor binding but is not conclusive. Values of this round are not directly comparable with the first-round values of the same sequences. The parent sequence was in this pool as ten entries: three were never detected, three once, and four in most replicates, with averages from 0.34 to 2.37. As a blank, each scFv also met three strains without target: over all heavy chain designs, 1% of these pairings were detected, typically at 2.08 and seldom below 0.84. For each scFv, signals with the empty controls are counted beside the result, with their mean in brackets. The authors averaged sequences with at least three values out of six and counted those with two or fewer as poor binders.

CDR-H1	CDR-H2	CDR-H3	log10 Kd, replicates	mean, log10 nM	control signals
GFDLDEYGIS	VIYADGRRTAYADNVK	GEVAGTFDT	-0.02 -0.05 0.37 -0.32 -0.48 -0.28	-0.13	0/18
GFDLDEYGIS	VIYADGMRTAYADKVK	GEVAGTFDV	-0.44 -1.00 -0.99 -1.15 -0.88 -0.69	-0.86	0/18
GFDLDEYGIS	VIYADGVRTAYTDSVK	GENAGTFDV	0.03 -0.34 0.27 -0.18 -0.55 -0.02	-0.13	0/18
GFDLNEYGIS	VIYADGLRTAYADSVK	GNTAGTFDV	0.23 0.02 -0.01 -0.01 -0.10 0.10	0.04	0/18
GFDLNEYGIS	VIYADGMRTAYSDSVK	GSNAGTFDM	0.49 0.09 0.25 0.17 0.08 0.32	0.23	0/18
GFDLNEYGIS	VIYADGRRTAYADDVK	GEVAGTFDM	-0.48 -0.54 -0.84 -1.06 -0.96 -0.82	-0.79	0/18
GFDLNEYGIS	VIYADGMRTAYVDSVK	GSNAGTFDV	0.26 0.19 0.42 0.18 0.14 0.14	0.22	0/18
GFDLNEYGIS	VIYADGVRTAYTDSVK	GNQAGTFDM	0.90 0.52 0.64 0.56 0.97 0.42	0.67	0/18
GFDLDEYGIS	VIYADGQRTAYADDVK	GNVAGTFDT	-0.38 -0.37 -0.74 -0.99 -0.61 -0.04	-0.52	0/18
GFDLNEYGIS	VIYADGKRAAYADSVK	GNVAGTFDV	0.40 -0.21 0.04 -0.68 -0.53 -0.14	-0.19	0/18
GFDLNEYGIS	VIYADGVRTFYADDVK	GNQAGTFDV	0.27 -0.33 -0.03 -0.30 -0.19 -0.04	-0.10	0/18
GFDLDEYGIS	VIYADGMRTAYVDSVK	GENAGTFDT	-0.44 -1.09 -1.06 -0.92 -1.18 -0.76	-0.91	0/18
GFDLNEYGIS	VIYADGVRTAYSDSVK	GNNAGTFDV	-0.23 -0.04 0.09 -0.29 0.10 -0.02	-0.07	0/18
GFDLDEYGIS	VIYADGKRTAYSDSVK	GENAGTFDQ	-0.23 1.00 0.52 0.24 1.25 0.56	0.56	0/18
GFDLDEYGIS	VIYADGMRTAYVDSVK	GNNAGTFDI	1.29 1.28 0.63 0.57 0.60 0.76	0.85	0/18
GFDLDEYGIS	VIYADGSRTAYADSVK	GENAGTFDM	0.56 0.51 0.17 0.27 -0.25 0.00	0.21	0/18
GFDLNEYGIS	VIYADGMRTAYVDSVK	GNVAGTFDQ	-0.82 -0.63 -0.43 -0.60 -0.22 -0.21	-0.48	0/18
GFDLDEYGIS	VIYADGKRTAYSDSVK	GNEAGTFDL	-0.52 -0.28 -0.40 -0.96 -0.51 0.20	-0.41	1/18 (1.70)
GFDLEDYGIS	VIYADGMRTAYADSVK	GETAGTFDL	0.85 0.44 0.31 -0.11 0.48 0.67	0.44	0/18
GFDLNEYGIS	VIYADGMRTAYSDSVK	GGQAGTFDV	-0.51 -0.76 -0.80 -0.43 -0.87 -0.81	-0.70	0/18
GFDLEDYGIS	VIYADGQRTAYADSVK	GQNAGTFDV	0.19 -0.53 0.74 -0.43 -0.10 0.16	0.01	0/18
GFDLDEYGIS	VIYADGMRTAYTDNVK	GNVAGTFDV	0.22 0.01 -0.16 -0.17 0.08 0.12	0.02	0/18
GFDLDEYGIS	VIYADGSRTAYADSVK	GNTAGTFDQ	0.24 0.01 -0.16 -0.48 -0.13 0.17	-0.06	0/18
GFDLNEYGIS	VIYADGRRTAYADDVK	GEVAGTFDL	-0.02 -0.43 -0.44 -0.44 -0.32 0.15	-0.25	0/18
GFDLDEYGIS	VIYADGSRKAYADSVK	GENAGTFDV	-0.58 -0.61 -0.73 -1.00 -0.45 -0.39	-0.63	0/18
GFDLNEYGIS	VIYADGMRTAYADSVK	GQVAGTFDM	-0.67 -0.81 -0.89 -0.80 -0.64 -0.71	-0.75	0/18
GFDLNEYGIS	VIYADGVRTAYADDVK	GKNAGTFDV	0.20 -0.62 -0.65 -0.99 -0.75 -0.45	-0.54	0/18
GFDLNEYGIS	VIYADGQRTAYADSVK	GNEAGTFDM	nd 1.44 nd nd nd nd	1.44	0/18
GFDLDEYGIS	VIYADGMRTAYVDDVK	GENAGTFDV	0.04 0.07 -0.35 -0.36 0.19 -0.36	-0.13	0/18
GFDLNEYGIS	VIYADGKRTAYADTVK	GNVAGTFDL	-0.44 -0.16 -0.66 -0.80 -0.63 -0.61	-0.55	0/18
GFDLNEYGIS	VIYADGVRTAYKDSVK	GNVAGTFDV	0.33 -0.11 0.09 -0.26 0.45 -0.07	0.07	0/18
GFDLNEYGIS	VIYADGKRTAYADKVK	GTNAGTFDV	-0.54 -0.60 -0.53 -1.02 -0.82 -0.73	-0.71	0/18
GFDLNEYGIS	VIYADGMRTSYADDVK	GENAGTFDM	-0.41 1.15 -0.38 -0.82 0.54 -0.60	-0.09	0/18
GFDLNEYGIS	VIYADGVRTAYADDVK	GENAGTFDT	-0.27 -0.62 -0.11 -0.46 -0.27 0.22	-0.25	0/18

The 5 strongest on average among those seen in every replicate, once more:

CDR-H1	CDR-H2	CDR-H3	log10 Kd, replicates	mean, log10 nM	control signals
GFDLDEYGIS	VIYADGMRTAYVDSVK	GENAGTFDT	-0.44 -1.09 -1.06 -0.92 -1.18 -0.76	-0.91	0/18
GFDLDEYGIS	VIYADGMRTAYADKVK	GEVAGTFDV	-0.44 -1.00 -0.99 -1.15 -0.88 -0.69	-0.86	0/18
GFDLNEYGIS	VIYADGRRTAYADDVK	GEVAGTFDM	-0.48 -0.54 -0.84 -1.06 -0.96 -0.82	-0.79	0/18
GFDLNEYGIS	VIYADGMRTAYADSVK	GQVAGTFDM	-0.67 -0.81 -0.89 -0.80 -0.64 -0.71	-0.75	0/18
GFDLNEYGIS	VIYADGKRTAYADKVK	GTNAGTFDV	-0.54 -0.60 -0.53 -1.02 -0.82 -0.73	-0.71	0/18